This note sets out measurements from US10751301B2, “Methods for inhibiting conversion of choline to trimethylamine (TMA)” (The Procter & Gamble Company, priority 2017, dated 2020).

Chains of the proteins cited; added tags and fusions are not shown. Lines headed by an entry give the natural chain unless they say otherwise; changes in a name come on top.
UniProt Q30W70: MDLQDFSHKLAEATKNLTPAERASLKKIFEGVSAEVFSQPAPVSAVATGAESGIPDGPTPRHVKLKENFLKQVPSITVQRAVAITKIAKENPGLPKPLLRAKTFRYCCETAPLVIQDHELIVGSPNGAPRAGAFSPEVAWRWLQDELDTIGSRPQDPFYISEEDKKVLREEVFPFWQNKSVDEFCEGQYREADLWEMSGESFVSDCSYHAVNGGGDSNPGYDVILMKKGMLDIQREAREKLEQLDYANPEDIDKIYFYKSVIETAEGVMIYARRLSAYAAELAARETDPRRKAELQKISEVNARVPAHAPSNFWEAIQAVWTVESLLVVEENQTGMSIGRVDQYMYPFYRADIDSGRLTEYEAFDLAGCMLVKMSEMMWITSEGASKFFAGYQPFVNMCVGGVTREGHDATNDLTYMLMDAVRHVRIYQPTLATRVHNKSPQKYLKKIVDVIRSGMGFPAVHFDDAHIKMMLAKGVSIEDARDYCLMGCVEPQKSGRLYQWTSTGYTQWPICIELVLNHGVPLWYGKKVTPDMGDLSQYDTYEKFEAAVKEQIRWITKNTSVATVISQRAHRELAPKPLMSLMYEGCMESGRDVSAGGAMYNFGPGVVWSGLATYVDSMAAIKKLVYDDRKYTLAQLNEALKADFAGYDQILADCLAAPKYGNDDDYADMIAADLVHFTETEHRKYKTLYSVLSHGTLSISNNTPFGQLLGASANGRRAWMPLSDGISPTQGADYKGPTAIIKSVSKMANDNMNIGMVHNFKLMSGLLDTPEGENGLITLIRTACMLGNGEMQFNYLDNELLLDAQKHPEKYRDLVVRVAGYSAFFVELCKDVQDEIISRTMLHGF

For this assay, the target named is recombinant D. alaskensis Cut C/D lysate (Oleidesulfovibrio alaskensis, UniProt Q30W70). Conditions: read-out: IC50 (mol/L) recombinant D. alaskensis Cut C/D lysate.

In the case of `C[S+](CCO)CCCCl` (stereo not shown), the IC50 amounted to 6.7 µM.
